{"source": "patent US8361968B2", "about": "(Takeda Pharmaceutical Company Limited, priority 2002, dated 2013)", "key": {"immature rats": {"test_system": "immature rats", "assay": "Induction of ovulation by human metastin in immature rats", "assay_type": "in vivo", "experimental": "(§1) Equine chorionic gonadotropin (eCG, serotropin, Dainippon Pharmaceutical Co., Ltd.) was dissolved in saline (Otsuka Pharmaceutical Co., Ltd.) in a concentration of 100 IU/mL. Using a 1 mL tuberculin syringe with a 26-gauge needle (both by Terumo Co., Ltd.), eCG was subcutaneously injected into the dorsal area of female Wistar rats of 23 days old after birth (Charles River Japan, Inc.) in a dose of 10 IU/animal, during 9:30 to 10:00 AM. As shown below, the animal was grouped 47 to 48 hours after the eCG injection and the drugs were injected to these groups, respectively.\n(§2) Group A (5 rats): Human chorionic gonadotropin (hCG, gonadotropin, Dainippon Pharmaceutical Co., Ltd.) was dissolved in saline at 100 IU/mL and the solution was subcutaneously injected into the back in a dose of 20 IU/animal.\nGroup D (6 rats): Saline was subcutaneously injected into the back in a dose of 200 μL/animal.\nAfter administration of the drugs described above, the animal was sacrificed by decapitation after 24 to 25 hours to recover blood, bilateral oviducts and uterus. In collecting the blood, 90 μL of 10 KIU/mL aprotinin solution (Trasylol, Bayer) containing 3 mg/ml EDTA had been previously filled in a tube for recovery to prevent blood clotting. After blood recovery, the blood was thoroughly blended and the mixture was centrifuged at 2,000 G for 25 minutes. The supernatant was recovered and used as a plasma sample.\nThe number of oocytes was counted as follows.\nWhere retained oocytes in the oviducal ampulla were confirmed by stereomicroscopic observation of the oviduct, the ampulla was punctured with a 27-gauge syringe needle (Terumo) to retrieve the oocytes. After granulosa cells surrounding the oocytes were removed by trypsin treatment, the number of oocytes was counted. Where the retained oocytes in the oviducal ampulla were not confirmed by stereomicroscopic observation of the oviduct, a 27-gauge syringe needle with the polished tip was inserted into the tubal ostium and more than 400 μL of saline was flushed into the oviduct and uterine for rinsing. Then, the presence or absence of oocytes in the effluent was observed.\nThe level of estradiol contained in the plasma collected from the rats shown in TABLE 22 was determined by radioimmunoassay (DPC-Estradiol Kit; Diagnostic Products Corporation).\nThe level of progesterone contained in plasma was determined by radioimmunoassay (DPC.Progesterone; Diagnostic Products Corporation)."}, "immature rat": {"test_system": "immature rat", "assay": "Induction of ovulation in immature rat using metastin derivatives", "assay_type": "in vivo, rats", "experimental": "as §1, with “during 9:00” for “during 9:30”, “were given” for “were injected”\nas §2\nGroup B (5 rats): Compound No. 305 was dissolved in saline at 33.3 nmol/mL and the solution was subcutaneously injected into the back in a dose of 6.7 nmol/animal.\nGroup C (5 rats): Compound No. 305 was dissolved in saline at 10.0 nmol/mL and the solution was subcutaneously injected into the back in a dose of 2.0 nmol/animal.\nGroup D (5 rats): Compound No. 322 was dissolved in saline at 33.3 nmol/mL and the solution was subcutaneously injected into the back in a dose of 6.7 nmol/animal.\nGroup E (5 rats): Compound No. 322 was dissolved in saline at 10.0 nmol/mL and the solution was subcutaneously injected into the back in a dose of 2.0 nmol/animal.\nGroup F (6 rats): Saline was subcutaneously injected into the back in a dose of 200 μL/animal.\nAfter administration of these drugs, the animal was sacrificed by decapitation after 24 to 25 hours to recover blood, bilateral oviducts and uterus. […]\nThe number of oocytes was counted by referring to the method described in Eur. J. Endocrinol., 138, 594-600 (1998). […] After granulosa cells surrounding the oocytes were removed by trypsin treatment, the number of oocytes was counted. […]"}, "[1]": {"conditions": "Group A: eCG-primed immature female rats, 20 IU/animal s.c."}}, "note": "Several values for one entry are separate records, joined by “and”; a condition that tells them apart may be missing. Equal values may be shown once.", "data": [{"substance": "hCG: Human chorionic gonadotropin (hCG, gonadotropin, Dainippon Pharmaceutical Co., Ltd.), reference ovulation inducer", "values": [{"measurement": "level of estradiol contained in plasma", "setting": "immature rats; Group A: 20 IU/animal s.c. (FIG. 12)", "value": "no difference in the level of estradiol"}, {"measurement": "level of progesterone contained in plasma", "setting": "immature rats; Group A: 20 IU/animal s.c. (FIG. 13)", "value": "highest"}, {"measurement": "number of oocytes in average per rat", "setting": "immature rats; [1]", "value": 37.6, "unit": "oocytes"}, {"measurement": "Number of oocytes, individual rats 1 to 5", "setting": "immature rats; Group A: hCG 20 IU/animal subcutaneously, immature rats", "value": "36 and 35 (2×) and 40 and 42"}, {"measurement": "Average number of ova", "setting": "immature rats; Group A: hCG 20 IU/animal subcutaneously, immature rats, 24 to 25 hours after administration", "value": 37.6}, {"measurement": "level of estradiol contained in plasma", "setting": "immature rat; Group A: 20 IU/animal s.c. (FIG. 21)", "value": "no difference"}, {"measurement": "level of progesterone in blood", "setting": "immature rat; Group A: 20 IU/animal s.c. (FIG. 22)", "value": "highest"}, {"measurement": "number of oocytes in average per rat", "setting": "immature rat; [1]", "value": 38.0, "unit": "oocytes"}]}]}
